{
  "source": "paper PMC6274353",
  "about": "“The Blood-Brain Barrier Permeability of Lignans and Malabaricones from the Seeds of Myristica fragrans in the MDCK-pHaMDR Cell Monolayer Model” (Molecules, 2016)",
  "tested_on": "MDCK-pHaMDR cell monolayer",
  "experiment": "bidirectional transport across the MDCK-pHaMDR cell monolayer (in vitro BBB model)",
  "settings": "time-dependency (30–180 min, 100 µM) and concentration-dependency (25–100 µM, 90 min) experiments",
  "data": [
    {"smiles": "C=CCc1cc(OC)c(O[C@@H](C)[C@H](O)c2ccc(O)c(OC)c2)c(OC)c1", "note": "[Compound 7, myrislignan]", "values": [
      {"measurement": "primary transport mechanism", "value": "passive diffusion"}
    ]}
  ]
}
